Measured values taken from US20260000771A1, “PSMA-TARGETING LINEAR CONJUGATES COMPRISING POLYETHYLENEIMINE AND POLYETHYLENE GLYCOL AND POLYPLEXES COMPRISING THE SAME” (TARGIMMUNE THERAPEUTICS AG, priority 2022, published 2026).

How the values were obtained:
[1] = Polyplex size distribution by dynamic light scattering (DLS); format: physicochemical; conditions: pH 7.2
[2] = Polyplex ζ-potential (PALS/ELS); format: physicochemical; conditions: pH 7.2

Substance	DLS (nm), DTS1070 [1] [nm]	PDI, DTS1070 [1]	ζ-pot (mV), DTS1070 [2] [mV]
Me-LPEI-l-[N3:DBCO]-PEG36-DUPA	140	0.132	28.2
Me-LPEI-l-[N3: BCN]-PEG36-DUPA	130	0.134	26.6
